Screening results from PubChem BioAssay.
An excerpt weighted towards active compounds, which were near 2.3% of everything screened.
MC4R ag barr: human MC4R agonism via beta-arrestin; U2OS MC4R beta-arrestin complementation, luminescence; percent of melanotan II response, DMSO zero; activation, % at 8.9 µM; hit rate 0.98% among 360,000;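 active means activation above a per-plate cutoff, the mean activation of sample wells on that plate plus 3 SD, cut at about 8% in these data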
ASAP1 GAP inh: blocks human ASAP1-stimulated Arf1 GTP hydrolysis; AID 624377; GDP FP detection; hit rate 0.19% among 360,000; inhibition, % at 16.5 µM; in the data active means inhibition above about 25%
ARFGAP1 inhibitor: rat ARFGAP1 inhibition; AID 651572; hit rate 0.26% among 360,000; Q62848; inhibition, % at 16.5 µM; Arfgap1-stimulated ARF1 GTP hydrolysis, GDP FP detection;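 active means inhibition above a per-plate limit, mean inhibition of low control wells plus 3 SD, cut at about 25% in these data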
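Material: rat Arfgap1 catalytic domain, aa 1-136; also added: human ARF1(Δ1-17)-GTP substrate; compound dosing: one concentration, 16.5 µM, DMSO 1.26%; incubation: GTP hydrolysis reaction 2 h at 25 °C; measured by: Tracer-displacement fluorescence polarization with EDTA stop, 620/688 nm; evaluation: % inhibition from polarization; repeats: one replicate per compound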
NRP1-CendR mod: NRP-1/CendR interaction modulation; FAM-RPARPAR peptide binding to NRP-1, fluorescence polarization; inhibition, % at 25 µM; hit rate 0.85% among 360,000;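 active means inhibition or corrected inhibition above about 18%, plus a signal ratio from 0.5 to 1.5, limit read from the data, passing the limit was not always enough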
Yeast UUG start: modulators of yeast start codon fidelity, primary screen, whole organism, S. cerevisiae, single point, plate reader | AID 602363, 2012 | S. cerevisiae UUG-firefly luciferase reporter, luminescence/redox ratio | activity score, % at 18.7 µM | hit rate 0.13% among 350,000;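 active = replicate mean at a twofold rise or more, about +100% in these data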;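 also: firefly luciferase made from a UUG start codon reports start codon fidelity; reporter light over untreated wells divided by growth signal over untreated wells; some hits fall short of that in this replicate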
MC4R antag cAMP: human MC4R antagonism in cAMP assay | P32245 | MC4R-expressing cells, MTII-stimulated cAMP, LANCE TR-FRET | inhibition, % at 6.5 µM | hit rate 0.48% among 360,000;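 active means inhibition above its plate's cutoff, the mean of tested wells on that plate plus 3 SD, cut at about 29% in these data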
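System: U2OS-MC4R stable cell line; Technique: Eu-cAMP/anti-cAMP TR-FRET, emission 671 nm; Repeats: single well per compound; Also added: Melanotan II; Dosing: one concentration, 6.5 µM nominal; Schedule: 30-min compound, 1-h challenge, 1-h detection, room temperature.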
ASAP1 inh confirm: confirmation of human ASAP1 inhibitors; shares compounds with ASAP1 GAP inh; ASAP1-stimulated Arf1 GTPase, GDP fluorescence polarization; inhibition, % at 16.5 µM; hit rate 37% among 620;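 active means mean inhibition over triplicates exceeds the hit threshold derived for the earlier primary screening run, cut at about 25% in these data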
Numbers stand for hits.

`Cc1cc(=O)oc2c(C)c(OCC(=O)NC3CC(C)(C)NC(C)(C)C3)ccc12` gave MC4R ag barr inactive, ASAP1 GAP inh inactive, ARFGAP1 inhibitor inactive, NRP1-CendR mod inactive, Yeast UUG start inactive and MC4R antag cAMP inactive.
For CCCc1cc(=O)oc2c(C)c(OCC(=O)NC3CC(C)(C)NC(C)(C)C3)ccc12 the results were MC4R ag barr inactive, ASAP1 GAP inh 27, ARFGAP1 inhibitor inactive, NRP1-CendR mod inactive, Yeast UUG start inactive, MC4R antag cAMP inactive and ASAP1 inh confirm inactive.
Screening COCC(=O)Nc1ccc2c(c1)C(=O)N(C)C[C@@H](OC)[C@@H](C)CN(Cc1ccccc1)[C@H](C)CO2 returned Yeast UUG start inactive.
Screening C=CCn1cnnc1SCC(=O)NCC1COc2ccccc2O1 (stereo unspecified) returned MC4R ag barr inactive, ASAP1 GAP inh 31, ARFGAP1 inhibitor inactive, NRP1-CendR mod inactive, Yeast UUG start inactive, MC4R antag cAMP inactive and ASAP1 inh confirm inactive.
`C=CCn1cnnc1SCC(=O)N(C)CC1COc2ccccc2O1` (stereo unspecified) gave MC4R ag barr inactive, ASAP1 GAP inh inactive, ARFGAP1 inhibitor inactive, NRP1-CendR mod inactive, Yeast UUG start inactive and MC4R antag cAMP inactive.
CCOc1ccc2[nH]c(C(=O)N/N=C/c3cc(OC)c(OC)c(OC)c3)cc2c1 was read as MC4R ag barr inactive, ASAP1 GAP inh 27, ARFGAP1 inhibitor inactive, NRP1-CendR mod inactive, Yeast UUG start inactive, MC4R antag cAMP inactive and ASAP1 inh confirm 51.
COc1cc(/C=N/NC(=O)c2cc3ccccc3[nH]2)ccc1O was read as MC4R ag barr inactive, ASAP1 GAP inh inactive, ARFGAP1 inhibitor inactive, NRP1-CendR mod inactive, Yeast UUG start inactive and MC4R antag cAMP inactive.
For C[C@@H]1CN([C@H](C)CO)S(=O)(=O)c2ccc(C#CCN(C)C)cc2O[C@@H]1CN(C)Cc1ccc(F)cc1 the results were Yeast UUG start inactive.
ON1C(c2ccc(Cl)cc2Cl)N(O)[C@H]2CCCC[C@H]21 (stereo partly specified) was read as MC4R ag barr inactive, ASAP1 GAP inh inactive, ARFGAP1 inhibitor inactive, NRP1-CendR mod inactive, Yeast UUG start inactive and MC4R antag cAMP inactive.
CC1N(O)C(c2ccc(Cl)cc2Cl)N(O)C1(C)C (stereo unspecified) was read as MC4R ag barr inactive, ASAP1 GAP inh 25, ARFGAP1 inhibitor inactive, NRP1-CendR mod inactive, Yeast UUG start inactive, MC4R antag cAMP inactive and ASAP1 inh confirm inactive.
For C[C@H]1CCCCO[C@H](CN(C)C(=O)Nc2ccc3c(c2)OCO3)[C@@H](C)CN([C@@H](C)CO)C(=O)c2cc(NC(=O)CCC(F)(F)F)ccc2O1 the results were Yeast UUG start inactive.
For CN1CCN(c2ccc(S(=O)(=O)N3CCCCC3)cc2NC(=O)/C=C/c2ccc(OC(F)F)cc2)CC1 the results were MC4R ag barr inactive, ASAP1 GAP inh 25, ARFGAP1 inhibitor inactive, NRP1-CendR mod inactive, Yeast UUG start inactive, MC4R antag cAMP inactive and ASAP1 inh confirm inactive.
For O=C(Cc1ccccc1)N1C[C@H]2[C@@H](c3ccccc31)[C@@H](CO)N2C(=O)C1CCCC1 the results were Yeast UUG start inactive.
`CCOc1cc2c(C#N)c(N(CC)CC)nc(N)c2c(N)n1` gave MC4R ag barr inactive, ASAP1 GAP inh 33, ARFGAP1 inhibitor inactive, NRP1-CendR mod inactive, Yeast UUG start inactive, MC4R antag cAMP inactive and ASAP1 inh confirm inactive.
CC(Sc1ccsc1[N+](=O)[O-])C(=O)NCc1ccccc1 (stereo unspecified) was read as ASAP1 GAP inh 25, ARFGAP1 inhibitor inactive and ASAP1 inh confirm inactive.
For Cc1ccc(-c2nc(Nc3ccc(O)cc3)c3ccccc3n2)cc1 the results were MC4R ag barr inactive, ASAP1 GAP inh inactive, ARFGAP1 inhibitor inactive, NRP1-CendR mod inactive, Yeast UUG start inactive and MC4R antag cAMP inactive.
Screening Cc1ccc(-c2nc(Nc3cccc(O)c3)c3ccccc3n2)cc1 returned MC4R ag barr inactive, ASAP1 GAP inh 29, ARFGAP1 inhibitor inactive, NRP1-CendR mod inactive, Yeast UUG start inactive, MC4R antag cAMP inactive and ASAP1 inh confirm inactive.
CC(=O)N(C)C[C@H]1Oc2cc(-c3ccncc3)ccc2S(=O)(=O)N([C@@H](C)CO)C[C@H]1C was read as Yeast UUG start inactive.
`COC(=O)CCCC1=CC2=CC(=O)C(C)(OC(=O)c3cccs3)C(=O)C2=CN1Cc1ccco1` (stereo unspecified) gave MC4R ag barr inactive, ASAP1 GAP inh 25, ARFGAP1 inhibitor inactive, NRP1-CendR mod inactive, Yeast UUG start inactive, MC4R antag cAMP inactive and ASAP1 inh confirm inactive.
COC(=O)CCCC1=CC2=CC(=O)C(C)(OC(=O)c3cccs3)C(=O)C2=CN1Cc1ccc2c(c1)OCO2 (stereo unspecified) was read as MC4R ag barr inactive, ASAP1 GAP inh inactive, ARFGAP1 inhibitor inactive, NRP1-CendR mod inactive, Yeast UUG start inactive and MC4R antag cAMP inactive.
`Cc1cccc(NC(=O)CSc2nnc(-c3ccc(S(=O)(=O)N4CCCC4)cc3)o2)c1` gave MC4R ag barr inactive, NRP1-CendR mod inactive, Yeast UUG start inactive and MC4R antag cAMP inactive.
For Cc1ccc(NC(=O)CSc2nnc(-c3ccc(S(=O)(=O)N4CCCC4)cc3)o2)cc1C the results were MC4R ag barr inactive, ASAP1 GAP inh 31, ARFGAP1 inhibitor inactive, NRP1-CendR mod 26, MC4R antag cAMP inactive and ASAP1 inh confirm inactive.
Screening CC(C)CC#Cc1cnc2c(c1)C(=O)N([C@H](C)CO)C[C@H](C)[C@@H](CN(C)C(=O)c1cccnc1)O2 returned Yeast UUG start inactive.
For COC(=O)c1cc(NC(=O)c2ccc(Cn3cc(Cl)cn3)o2)cc(C(=O)OC)c1 the results were MC4R ag barr inactive, ASAP1 GAP inh 40, ARFGAP1 inhibitor inactive, NRP1-CendR mod inactive, Yeast UUG start inactive, MC4R antag cAMP inactive and ASAP1 inh confirm 28.
`Cc1ccc2c(CC(=O)N3CCN(c4ccccc4)CC3)coc2c1` gave MC4R ag barr inactive, ASAP1 GAP inh 25, ARFGAP1 inhibitor inactive, NRP1-CendR mod inactive, Yeast UUG start inactive, MC4R antag cAMP inactive and ASAP1 inh confirm inactive.
`O=C(Nc1ccn(CCCNCc2ccccc2)c(=O)n1)OCc1ccccc1` gave MC4R ag barr inactive, ASAP1 GAP inh inactive, ARFGAP1 inhibitor inactive, NRP1-CendR mod inactive, Yeast UUG start inactive and MC4R antag cAMP inactive.
For O=C(Nc1ccn(CCCN(CCCn2ccc(NC(=O)OCc3ccccc3)nc2=O)CCc2cc3ccccc3[nH]2)c(=O)n1)OCc1ccccc1 the results were MC4R ag barr inactive, ASAP1 GAP inh 30, ARFGAP1 inhibitor inactive, NRP1-CendR mod inactive, Yeast UUG start inactive, MC4R antag cAMP inactive and ASAP1 inh confirm inactive.
